From patent US20230159655A1 (AKESO BIOPHARMA, published 2023)
Changes are numbered by the printed parent chain.

Legend:
[1] = target: T1, human NT5E-Biotin (NT5E, GenbankID: NP_002517.1, position: 1-552) (human, UniProt P21589 27-552, biotin (site not stated)); test: ELISA on SA-captured NT5E-Biotin; antibody 0.333 ug/mL diluted 1:27; replicate 2
T1 construct: range 1-552; Biotinylated antigen captured on streptavidin-coated plates; also called HNT5E-Biotin; human NTSE-Biotin
T1 sequence (looked up): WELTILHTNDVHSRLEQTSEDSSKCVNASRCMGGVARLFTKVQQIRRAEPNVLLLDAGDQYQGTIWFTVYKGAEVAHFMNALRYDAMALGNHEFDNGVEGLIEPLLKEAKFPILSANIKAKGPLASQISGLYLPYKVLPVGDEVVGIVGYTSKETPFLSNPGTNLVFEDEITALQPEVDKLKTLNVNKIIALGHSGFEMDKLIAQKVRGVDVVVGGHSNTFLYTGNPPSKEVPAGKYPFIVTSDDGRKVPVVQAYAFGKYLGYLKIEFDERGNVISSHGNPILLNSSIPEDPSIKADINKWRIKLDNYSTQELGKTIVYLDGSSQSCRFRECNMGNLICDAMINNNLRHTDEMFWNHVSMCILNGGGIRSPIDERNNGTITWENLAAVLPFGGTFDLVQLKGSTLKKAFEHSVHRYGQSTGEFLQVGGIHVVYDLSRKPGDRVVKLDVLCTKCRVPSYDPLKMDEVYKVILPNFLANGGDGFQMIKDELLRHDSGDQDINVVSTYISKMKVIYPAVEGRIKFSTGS
Procedure: (§1) Experimental steps: a microplate was coated with streptavidin at 2 μg/mL, and then the microplate was incubated at 4° C. for 12 hours. The antigen-coated microplate was rinsed for once with PBST after incubation, and then blocked with a PBST solution containing 1% BSA as a microplate blocking solution for 2 hours. After blocking, the microplate was washed 3 times with PBST. […] The antibody serially diluted with the PBST solution was added to the wells of the microplate. The microplate containing the test antibodies was incubated at 37° C. for 30 minutes, and then washed 3 times with PBST. After the plate was washed, the secondary antibody working solution of HRP-labeled goat anti-human IgG (H+L) (Jackson, Cat. No. 109-035-088) diluted in a ratio of 1:5000 or HRP-labeled goat anti-mouse IgG (H+L) (Jackson, Cat. No. 115-035-062) diluted in a ratio of 1:5000 was added, and then the plate was incubated at 37° C. for 30 minutes. After incubation, the plate was washed 4 times with PBST, TMB (Neogen, 308177) was added in the dark for color development for 5 min, and then a stop solution was added to terminate chromogenic reaction. The microplate was put into a microplate reader immediately, and the OD value of each well in the microplate was read at the light wavelength of 450 nm. The data were analyzed by SoftMax Pro 6.2.1.

[2] = target: T1, human NT5E-Biotin (NT5E, GenbankID: …); test: ELISA on SA-captured NT5E-Biotin; antibody 0.333 ug/mL diluted 1:81; replicate 1
Procedure: as §1

[3] = target: T1, human NT5E-Biotin (NT5E, GenbankID: …); test: ELISA on SA-captured NT5E-Biotin; antibody 0.333 ug/mL; replicate 2
Procedure: as §1

[4] = target: T1, human NT5E-Biotin (NT5E, GenbankID: …); test: ELISA on SA-captured NT5E-Biotin; antibody 0.333 ug/mL diluted 1:9; replicate 1
Procedure: as §1

[5] = target: T1, human NT5E-Biotin (NT5E, GenbankID: …); test: ELISA on SA-captured NT5E-Biotin; antibody 0.333 ug/mL diluted 1:9; replicate 2
Procedure: as §1

[6] = target: T1, human NT5E-Biotin (NT5E, GenbankID: …); test: ELISA on SA-captured NT5E-Biotin; antibody 0 (blank); replicate 1
Procedure: as §1

[7] = target: T1, human NT5E-Biotin (NT5E, GenbankID: …); test: ELISA on SA-captured NT5E-Biotin; antibody 0.333 ug/mL diluted 1:729; replicate 1
Procedure: as §1

[8] = target: T1, human NT5E-Biotin (NT5E, GenbankID: …); test: ELISA on SA-captured NT5E-Biotin; antibody 0.333 ug/mL diluted 1:27; replicate 1
Procedure: as §1

[9] = target: T2, human NT5E(1-552)-his (human, UniProt P21589 27-552); test: Fortebio BLI, antibody on Protein A sensor, antigen 3.125-200 nM, 37 C, 1:1 fit
T2 construct: range 1-552; also called HNT5E(1-552)-his; human HNT5E (1-552)-his; not shown: His tag
T2 sequence (looked up): T1 sequence (looked up)
Procedure: The sample dilution buffer was PBST, pH 7.4. […] The detection temperature was 37° C., the detection frequency was 0.6 Hz, and the sample plate shaking rate was 1000 rpm. The data were analyzed by 1:1 model fitting to obtain affinity constants.

[10] = target: T1, human NT5E-Biotin (NT5E, GenbankID: …); test: ELISA on SA-captured NT5E-Biotin; antibody 0.333 ug/mL diluted 1:243; replicate 2
Procedure: as §1

[11] = target: T1, human NT5E-Biotin (NT5E, GenbankID: …); test: ELISA on SA-captured NT5E-Biotin, anti-human IgG-HRP
Procedure: as §1

[12] = target: T1, human NT5E-Biotin (NT5E, GenbankID: …); test: ELISA on SA-captured NT5E-Biotin; antibody 0.333 ug/mL diluted 1:81; replicate 2
Procedure: as §1

[13] = target: T1, human NT5E-Biotin (NT5E, GenbankID: …); test: ELISA on SA-captured NT5E-Biotin; antibody 0 (blank); replicate 2
Procedure: as §1

[14] = target: T1, human NT5E-Biotin (NT5E, GenbankID: …); test: ELISA on SA-captured NT5E-Biotin; antibody 0.333 ug/mL diluted 1:3; replicate 2
Procedure: as §1

[15] = target: T1, human NT5E-Biotin (NT5E, GenbankID: …); test: ELISA on SA-captured NT5E-Biotin; antibody 0.333 ug/mL diluted 1:3; replicate 1
Procedure: as §1

[16] = target: T1, human NT5E-Biotin (NT5E, GenbankID: …); test: ELISA on SA-captured NT5E-Biotin; antibody 0.333 ug/mL; replicate 1
Procedure: as §1

[17] = target: T1, human NT5E-Biotin (NT5E, GenbankID: …); test: ELISA on SA-captured NT5E-Biotin; antibody 0.333 ug/mL diluted 1:243; replicate 1
Procedure: as §1

[18] = target: T1, human NT5E-Biotin (NT5E, GenbankID: …); test: ELISA on SA-captured NT5E-Biotin; antibody 0.333 ug/mL diluted 1:729; replicate 2
Procedure: as §1

B1: humanized anti-human CD73 antibody 19F3H2L2 (antibody, IgG1, V domains shown)
VH: QVQLVQSGAEVVKPGASVKVSCKASGYSFTGYTMNWVRQAPGQNLEWIGLINPYNAGTSYNQKFQGKVTLTVDKSTSTAYMELSSLRSEDTAVYYCARSEYRYGGDYFDYWGQGTTLTVSS
VL: DIVMTQSPSSLAVSVGERVTISCKSSQSLLNSSNQKNYLAWYQQKPGQAPKLLIYFASTRESGVPDRFSGSGSGTDFTLTISSVQAEDVADYYCQQHYDTPYTFGGGTKLEIKR
- OD 450 nm [1]: 1.68 OD450
- OD 450 nm [2]: 0.87 OD450
- OD 450 nm [3]: 2.69 OD450
- OD 450 nm [4]: 2.16 OD450
- OD 450 nm [5]: 2.33 OD450
- OD 450 nm [6]: 0.119 OD450
- OD 450 nm [7]: 0.239 OD450
- OD 450 nm [8]: 1.58 OD450
- Kd [9]: 0.259 nM
- koff [9]: 0.000124 s⁻¹
- kon [9]: 480000 M⁻¹ s⁻¹
- OD 450 nm [10]: 0.454 OD450
- EC50 [11]: 0.064 nM
- OD 450 nm [12]: 0.933 OD450
- OD 450 nm [13]: 0.123 OD450
- OD 450 nm [14]: 2.62 OD450
- OD 450 nm [15]: 2.58 OD450
- OD 450 nm [16]: 2.6 OD450
- OD 450 nm [17]: 0.434 OD450
- OD 450 nm [18]: 0.247 OD450

B2: humanized anti-human CD73 antibody 19F3H1L1 (antibody, IgG1, V domains shown)
VH: B1 VH with V5Q, V18M, V20M, R38K, P41H, V68A
VL: not shown
- OD 450 nm [1]: 1.82 OD450
- OD 450 nm [2]: 1.04 OD450
- OD 450 nm [3]: 2.64 OD450
- OD 450 nm [4]: 2.41 OD450
- OD 450 nm [5]: 2.33 OD450
- OD 450 nm [6]: 0.125 OD450
- OD 450 nm [7]: 0.26 OD450
- OD 450 nm [8]: 1.82 OD450
- OD 450 nm [10]: 0.516 OD450
- EC50 [11]: 0.049 nM
- OD 450 nm [12]: 1.03 OD450
- OD 450 nm [13]: 0.123 OD450
- OD 450 nm [14]: 2.7 OD450
- OD 450 nm [15]: 2.6 OD450
- OD 450 nm [16]: 2.65 OD450
- OD 450 nm [17]: 0.525 OD450
- OD 450 nm [18]: 0.273 OD450
